The results in this text go back to US20100048465A1.

Sequences of proteins named here, by UniProt entry; tags and fusion partners are left off. A change or cut given only in a name is not applied to a line headed by its entry.
UniProt Q01727: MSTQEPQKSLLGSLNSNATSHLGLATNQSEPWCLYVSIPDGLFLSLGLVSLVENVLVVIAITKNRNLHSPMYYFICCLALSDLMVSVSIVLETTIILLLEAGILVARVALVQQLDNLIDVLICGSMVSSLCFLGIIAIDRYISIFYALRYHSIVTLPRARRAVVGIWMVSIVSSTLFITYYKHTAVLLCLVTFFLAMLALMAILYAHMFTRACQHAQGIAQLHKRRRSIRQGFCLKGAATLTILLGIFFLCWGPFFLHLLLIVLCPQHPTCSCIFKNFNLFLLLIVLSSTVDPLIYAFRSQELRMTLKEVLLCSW

Ends that are not written are not given here.

The target in the test is melanocortin-1 receptor (MC1R) on murine macrophage-like RAW 264.7 cells (mouse (murine RAW 264.7 cells)) (UniProt Q01727). The experiment in a line: cell-based or functional assay.

Take CVATRDSCKPPAPACCDPCASCQCRFFGSACTCRVLNPNC-NH2 (peptide, UniProt Q03288 92-131, looked up, ends and bridges not checked) [Mouse agouti (93-132)-NH2]: the TNF release by LPS-stimulated RAW 264.7 cells, LPS alone set at 100%; agouti 10^3 pM with MECO-1 10^-12 M (% of TNF release by LPS alone) is 173; the TNF release by LPS-stimulated RAW 264.7 cells, LPS alone set at 100%; agouti 10^3 pM with α-MSH 10^-12 M (% of TNF release by LPS alone) amounted to 139; the TNF release by LPS-stimulated RAW 264.7 cells, LPS alone set at 100%; agouti 10^5 pM with MECO-1 10^-12 M (% of TNF release by LPS alone) stood at 152; the TNF release by LPS-stimulated RAW 264.7 cells, LPS alone set at 100%; agouti 10^5 pM with α-MSH 10^-12 M (% of TNF release by LPS alone) was 122.
